In PubChem BioAssay (Tox21):
“And” between values parts separate entries of the source, which are not always exact repeats. Equal entries are not always repeated. The list shows a part of the results, in another mix than the full data. Inconclusive results are not listed. Some compounds were tested as several samples or in several runs, with calls that do not always agree. The source made the active and inactive calls. Unless noted, calls come from the whole dose curve; as a rule, active = well fitted curve in the direction sought with a large enough effect in the repeat runs; inconclusive = weak or mixed curves; inactive = no such curve, though single readings can be large; an effect the other way counts as inactive or inconclusive.

Chains of the proteins cited; added tags and fusions are not shown.
UniProt P16473, whole entry: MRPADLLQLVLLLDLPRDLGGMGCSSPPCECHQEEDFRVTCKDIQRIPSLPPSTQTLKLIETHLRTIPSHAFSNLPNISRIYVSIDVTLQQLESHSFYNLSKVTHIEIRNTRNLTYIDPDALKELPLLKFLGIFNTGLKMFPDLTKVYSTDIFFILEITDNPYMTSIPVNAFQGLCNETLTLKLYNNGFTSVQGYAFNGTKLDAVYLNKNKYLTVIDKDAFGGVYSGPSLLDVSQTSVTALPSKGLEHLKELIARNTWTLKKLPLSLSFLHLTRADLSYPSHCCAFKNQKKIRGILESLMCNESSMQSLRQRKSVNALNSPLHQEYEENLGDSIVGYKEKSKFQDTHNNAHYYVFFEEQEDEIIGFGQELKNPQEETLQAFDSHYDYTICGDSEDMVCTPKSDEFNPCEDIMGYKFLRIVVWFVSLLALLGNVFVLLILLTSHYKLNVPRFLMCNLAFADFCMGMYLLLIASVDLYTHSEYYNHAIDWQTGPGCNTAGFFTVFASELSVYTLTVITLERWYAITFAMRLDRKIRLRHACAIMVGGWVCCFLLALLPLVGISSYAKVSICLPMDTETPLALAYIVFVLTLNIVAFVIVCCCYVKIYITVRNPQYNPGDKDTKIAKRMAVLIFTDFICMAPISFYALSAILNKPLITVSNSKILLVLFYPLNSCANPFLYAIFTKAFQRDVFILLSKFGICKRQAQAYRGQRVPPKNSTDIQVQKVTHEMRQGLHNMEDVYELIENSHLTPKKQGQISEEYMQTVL
UniProt P34981, whole entry: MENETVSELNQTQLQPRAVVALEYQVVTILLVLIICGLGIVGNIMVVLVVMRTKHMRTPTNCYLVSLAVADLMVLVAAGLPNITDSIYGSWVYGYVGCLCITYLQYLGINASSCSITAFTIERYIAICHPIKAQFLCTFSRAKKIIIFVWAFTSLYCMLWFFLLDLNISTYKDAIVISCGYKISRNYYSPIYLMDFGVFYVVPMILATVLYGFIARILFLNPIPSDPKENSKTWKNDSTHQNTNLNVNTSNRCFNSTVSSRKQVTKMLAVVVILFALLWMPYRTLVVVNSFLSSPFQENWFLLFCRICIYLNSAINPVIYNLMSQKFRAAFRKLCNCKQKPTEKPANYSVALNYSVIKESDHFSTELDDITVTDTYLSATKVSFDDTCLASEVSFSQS
UniProt P05177, whole entry: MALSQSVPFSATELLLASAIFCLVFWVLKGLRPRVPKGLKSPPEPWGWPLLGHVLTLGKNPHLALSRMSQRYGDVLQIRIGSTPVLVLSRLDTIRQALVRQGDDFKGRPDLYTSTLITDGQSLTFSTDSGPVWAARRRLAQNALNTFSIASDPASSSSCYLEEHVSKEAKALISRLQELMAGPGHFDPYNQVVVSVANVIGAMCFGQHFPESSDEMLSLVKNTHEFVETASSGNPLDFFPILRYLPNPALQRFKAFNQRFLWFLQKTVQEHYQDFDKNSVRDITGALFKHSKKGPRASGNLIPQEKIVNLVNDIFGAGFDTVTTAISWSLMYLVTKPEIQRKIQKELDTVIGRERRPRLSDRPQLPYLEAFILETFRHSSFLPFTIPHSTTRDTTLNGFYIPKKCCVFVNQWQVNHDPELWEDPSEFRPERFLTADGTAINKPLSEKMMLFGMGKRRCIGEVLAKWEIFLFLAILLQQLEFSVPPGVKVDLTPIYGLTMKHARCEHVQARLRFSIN
UniProt Q12809, whole entry: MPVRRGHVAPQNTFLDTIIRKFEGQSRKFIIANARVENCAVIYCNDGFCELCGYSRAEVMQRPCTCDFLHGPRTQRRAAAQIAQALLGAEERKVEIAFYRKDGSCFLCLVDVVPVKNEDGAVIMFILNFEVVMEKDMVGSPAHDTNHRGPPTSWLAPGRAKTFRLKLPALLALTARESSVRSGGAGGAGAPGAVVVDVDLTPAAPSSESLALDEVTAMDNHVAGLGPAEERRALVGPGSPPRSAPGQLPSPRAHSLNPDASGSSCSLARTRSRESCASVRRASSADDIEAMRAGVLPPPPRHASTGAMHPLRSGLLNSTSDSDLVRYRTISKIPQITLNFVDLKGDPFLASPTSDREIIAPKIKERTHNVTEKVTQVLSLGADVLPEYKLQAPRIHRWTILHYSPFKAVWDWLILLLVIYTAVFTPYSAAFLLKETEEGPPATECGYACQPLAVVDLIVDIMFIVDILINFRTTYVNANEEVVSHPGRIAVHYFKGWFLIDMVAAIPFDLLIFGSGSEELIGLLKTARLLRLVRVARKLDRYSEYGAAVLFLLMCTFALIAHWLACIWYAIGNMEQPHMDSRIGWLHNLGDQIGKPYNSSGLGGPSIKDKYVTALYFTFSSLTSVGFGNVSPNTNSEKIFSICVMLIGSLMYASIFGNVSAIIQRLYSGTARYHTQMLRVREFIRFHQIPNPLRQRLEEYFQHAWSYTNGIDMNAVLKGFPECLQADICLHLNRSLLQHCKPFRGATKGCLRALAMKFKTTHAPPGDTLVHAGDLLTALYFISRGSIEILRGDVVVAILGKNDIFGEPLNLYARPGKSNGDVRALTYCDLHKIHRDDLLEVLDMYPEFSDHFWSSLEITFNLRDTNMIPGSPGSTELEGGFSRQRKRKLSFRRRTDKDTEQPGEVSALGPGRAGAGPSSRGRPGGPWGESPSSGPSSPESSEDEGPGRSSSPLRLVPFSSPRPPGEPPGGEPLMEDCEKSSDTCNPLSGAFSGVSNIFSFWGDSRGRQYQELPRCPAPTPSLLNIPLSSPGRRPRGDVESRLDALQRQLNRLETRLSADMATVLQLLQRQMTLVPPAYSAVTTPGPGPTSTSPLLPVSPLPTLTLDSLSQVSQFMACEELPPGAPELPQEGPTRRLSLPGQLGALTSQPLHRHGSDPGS
UniProt P08684, whole entry: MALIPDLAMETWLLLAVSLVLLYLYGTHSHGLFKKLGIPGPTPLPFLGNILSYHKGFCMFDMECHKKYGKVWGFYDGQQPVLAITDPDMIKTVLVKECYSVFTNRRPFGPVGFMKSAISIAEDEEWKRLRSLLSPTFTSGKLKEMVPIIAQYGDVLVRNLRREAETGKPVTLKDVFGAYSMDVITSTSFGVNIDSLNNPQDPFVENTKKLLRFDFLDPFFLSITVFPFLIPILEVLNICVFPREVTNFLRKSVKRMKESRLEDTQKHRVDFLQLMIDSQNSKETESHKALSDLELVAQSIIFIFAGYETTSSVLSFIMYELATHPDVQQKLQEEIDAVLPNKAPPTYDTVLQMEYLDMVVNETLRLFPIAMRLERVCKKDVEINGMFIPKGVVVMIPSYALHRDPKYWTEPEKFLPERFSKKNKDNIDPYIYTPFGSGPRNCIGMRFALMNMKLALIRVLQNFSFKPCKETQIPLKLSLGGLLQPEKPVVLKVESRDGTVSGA
UniProt P03372, whole entry: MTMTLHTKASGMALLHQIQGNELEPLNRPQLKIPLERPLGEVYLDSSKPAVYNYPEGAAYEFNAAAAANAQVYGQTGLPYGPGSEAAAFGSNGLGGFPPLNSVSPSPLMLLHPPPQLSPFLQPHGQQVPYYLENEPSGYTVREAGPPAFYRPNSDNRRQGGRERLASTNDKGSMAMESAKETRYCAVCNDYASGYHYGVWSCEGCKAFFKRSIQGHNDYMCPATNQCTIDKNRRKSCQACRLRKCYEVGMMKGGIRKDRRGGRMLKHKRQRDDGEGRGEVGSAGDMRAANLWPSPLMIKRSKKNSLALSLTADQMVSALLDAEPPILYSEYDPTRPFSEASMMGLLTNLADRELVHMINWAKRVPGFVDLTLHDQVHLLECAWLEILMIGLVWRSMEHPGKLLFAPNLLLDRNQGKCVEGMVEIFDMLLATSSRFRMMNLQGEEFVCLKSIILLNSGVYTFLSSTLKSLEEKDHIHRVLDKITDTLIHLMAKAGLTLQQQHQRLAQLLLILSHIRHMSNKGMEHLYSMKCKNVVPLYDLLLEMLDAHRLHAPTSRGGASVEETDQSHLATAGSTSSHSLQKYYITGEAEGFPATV
UniProt P06401, whole entry: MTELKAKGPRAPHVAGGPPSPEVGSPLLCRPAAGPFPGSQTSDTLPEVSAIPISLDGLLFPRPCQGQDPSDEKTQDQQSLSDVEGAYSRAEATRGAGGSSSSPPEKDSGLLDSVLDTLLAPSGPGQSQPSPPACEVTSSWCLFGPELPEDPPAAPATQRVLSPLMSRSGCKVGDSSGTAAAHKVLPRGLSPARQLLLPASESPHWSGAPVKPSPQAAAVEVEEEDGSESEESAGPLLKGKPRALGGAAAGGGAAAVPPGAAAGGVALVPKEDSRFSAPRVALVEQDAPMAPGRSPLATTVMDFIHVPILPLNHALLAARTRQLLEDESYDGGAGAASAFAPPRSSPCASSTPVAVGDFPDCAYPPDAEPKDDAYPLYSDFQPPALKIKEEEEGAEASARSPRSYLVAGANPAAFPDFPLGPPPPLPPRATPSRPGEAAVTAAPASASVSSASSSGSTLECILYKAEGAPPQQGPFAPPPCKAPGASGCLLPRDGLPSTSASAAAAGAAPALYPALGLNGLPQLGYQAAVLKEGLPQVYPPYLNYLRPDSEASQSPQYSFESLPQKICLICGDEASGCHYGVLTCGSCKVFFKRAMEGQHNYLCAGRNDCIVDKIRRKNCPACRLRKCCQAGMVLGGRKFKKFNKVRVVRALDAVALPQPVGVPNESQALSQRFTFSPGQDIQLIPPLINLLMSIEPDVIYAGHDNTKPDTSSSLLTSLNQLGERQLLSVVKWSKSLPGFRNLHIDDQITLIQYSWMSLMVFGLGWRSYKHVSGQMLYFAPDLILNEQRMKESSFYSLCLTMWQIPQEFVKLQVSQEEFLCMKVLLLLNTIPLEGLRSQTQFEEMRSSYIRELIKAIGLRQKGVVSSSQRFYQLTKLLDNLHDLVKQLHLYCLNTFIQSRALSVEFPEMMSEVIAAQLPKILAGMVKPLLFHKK

Tests used:
[1] = qHTS assay to identify small molecule antagonists of the estrogen receptor beta (ER-beta) signaling pathway - cell viability counter screen (AID 1259382); conditions: ER-beta-UAS-bla HEK293T viability, CellTiter-Glo luminescence, 16 h;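 note: HEK293T cells carrying ER-beta-UAS-bla reporter stimulated with estradiol; nearly all actives have a fitted effect of over 55% in size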
Method in brief: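 In this multiplexed counter screen, cells were seeded at 2,000 per well in medium with 2% charcoal-stripped FBS and incubated 6 hr before compound and 1nM final E2 were added. Sixteen hours later, ATP-based luminescence reported viability.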

[2] = qHTS assay to identify small molecule agonists or antagonists of the thyroid stimulating hormone receptor (TSHR) signaling pathway - wild type cell line counter screen (AID 1259384; calls by dose curve); conditions: HEK293 wild type, cAMP HTRF counter-screen, stronger effect = higher value
Method in brief: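 Wild-type Hek293 cells, 800/well, 18 h at 37C, then compound with Ro20-1724 for 30 min RT. cAMP by HTRF (cAMP-d2/anti-cAMP cryptate), 1 h RT, fluorescence read. 15 concentrations, triplicates.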

[3] = target: Thyrotropin receptor (Homo sapiens) (UniProt P16473); test: qHTS assay to identify small molecule antagonists of the thyroid stimulating hormone receptor (TSHR) signaling pathway (AID 1259385; calls by dose curve; note: nearly all actives have a fitted effect of over 20% in size); conditions: TSHR-HEK293 cAMP HTRF, TSH-stimulated antagonist mode
[4] = qHTS assay to identify small molecule agonists of the estrogen receptor alpha (ER-alpha) signaling pathway in the presence of an antagonist - cell viability counter screen (AID 1259386); conditions: VM7Luc4E2 viability, CellTiter-Fluor fluorescence, 22 h;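 note: cells exposed to compounds for 22 h at 37 °C before the viability read; nearly all actives have a fitted effect of over 30% in size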
Method in brief: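 Viability counter screen using VM7Luc4E2 (full-length ER-alpha, four ERE-luciferase). The cells were treated with compounds alongside ICI-182,780 10.0nM for 22hr, and live-cell protease fluorescence was quantified with CellTiter-Fluor.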

[5] = qHTS assay to identify small molecule antagonists of the progesterone receptor (PR) signaling pathway - cell viability counter screen (AID 1346798); conditions: PR-UAS-bla HEK293T viability, CellTiter-Glo luminescence, 16 h; note: nearly all actives have a fitted effect of over 50% in size
Method in brief: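 Cytotoxicity read as CellTiter-Glo luminescence (30 min, room temperature) in the same wells as the beta-lactamase readout. HEK293T PR-UAS-bla cells in charcoal-stripped 2% FBS received compound and R5020, then 16 h at 37C, 5% CO2.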

[6] = qHTS assay to identify small molecule agonists of the TGF-beta/Smad signaling pathway - cell viability counter screen (AID 1346829); conditions: SBE-bla HEK293T viability, CellTiter-Glo luminescence, 5 h; note: top concentration of the series differs between compounds; nearly all actives have a fitted effect of over 45% in size
Method in brief: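 Same-well cytotoxicity: CellTiter-Glo added after the 2 hr room-temperature beta-lactamase substrate step, luminescence measured 30 min later; cells had 5 hr of compound at 37 C.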

[7] = target: Thyrotropin-releasing hormone receptor (Homo sapiens) (UniProt P34981); test: qHTS assay to identify small molecule antagonists of the thyrotropin-releasing hormone receptor (TRHR) signaling pathway (AID 1346877; active = well fitted inhibition curve with a large enough effect in the repeat runs, not every such curve was filed as active)
[8] = target: Thyrotropin-releasing hormone receptor (Homo sapiens) (UniProt P34981); test: qHTS assay to identify small molecule agonists of the thyrotropin-releasing hormone receptor (TRHR) signaling pathway (AID 1346891; calls by dose curve;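 note: HEK293 cells expressing TRHR with calcium dye readout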); conditions: TRHR-HEK293 calcium fluorescence, agonist mode
[9] = Human pregnane X receptor (PXR) small molecule agonists, qHTS cell viability counter screen (AID 1346977); note: nearly all actives have a fitted effect of over 50% in size
Method in brief: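 Same-well viability read: CellTiter-Fluor added after 23 hr compound exposure, fluorescence measured 1 hr later. Cells were PXR-Luc HepG2 seeded at 2,000/well in 5% charcoal-stripped FBS medium, rested 5 hr before dosing at 37 C.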

[10] = Caspase-3/7 induction in HepG2 cells by small molecules, qHTS assay (AID 1346978); conditions: HepG2 caspase-3/7 activation, Caspase-Glo luminescence, 17 h; note: nearly all actives have a fitted effect of over 15% in size
Method in brief: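 Wild-type HepG2 cells, 2,000/well, settled 5 hr at 37 C and 5% CO2, then compound-treated for 17 hr; caspase-3/7 activity read by luminescent Caspase-Glo 3/7 after 30 min at room temperature.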

[11] = Caspase-3/7 induction in CHO-K1 cells by small molecules, qHTS cell viability counter screen (AID 1346979); note: nearly all actives have a fitted effect of over 35% in size
Method in brief: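 Cytotoxicity counter screen: CellTiter-Fluor added to compound-treated wild-type CHO-K1 cells at 16 h (37C, 5% CO2), fluorescence measured 1 h later; same wells as caspase-3/7 measurement.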

[12] = Caspase-3/7 induction in CHO-K1 cells by small molecules, qHTS assay (AID 1346980); note: nearly all actives have a fitted effect of over 15% in size
Method in brief: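 Wild-type CHO-K1 cells exposed to compounds for 17hr at 37 C, 5% CO2. Caspase-3/7 activity then measured by Caspase-Glo 3/7 luminescence after 30min at room temperature.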

[13] = Caspase-3/7 induction in HepG2 cells by small molecules, qHTS cell viability counter screen (AID 1346981); conditions: CellTiter-Fluor fluorescence, 17 h; note: nearly all actives have a fitted effect of over 30% in size
Method in brief: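 Viability determined by CellTiter-Fluor fluorescence in HepG2 wells also used for the luminescent Caspase-Glo 3/7 read. Compounds were present for 16 hr at 37 C, 5% CO2 before reagent addition.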

[14] = target: Cytochrome P450 1A2 (Homo sapiens) (UniProt P05177); test: Cytochrome P450 Family 1 Subfamily A Member 2 (CYP1A2) small molecule antagonists: luciferase reporter qHTS assay (AID 1671199); note: nearly all actives have a fitted effect of over 50% in size; note: potency is the fitted concentration of half-maximal effect
[15] = target: Voltage-gated inwardly rectifying potassium channel KCNH2 (Homo sapiens) (UniProt Q12809); test: Human Ether-a-go-go-Related Gene (hERG) channel small molecule antagonists: fluorescence cell-based qHTS assay (AID 1671200); note: nearly all actives have a fitted effect of over 50% in size
Method in brief: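 Thallium flux as potassium surrogate: FluxOR II dye loaded 1 h at room temperature into hERG-expressing U2OS cells, then stimulus buffer added after 10 min. Kinetic 480 nm excitation/540 nm emission read, 2 min.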

[16] = target: Cytochrome P450 3A4 (Homo sapiens) (UniProt P08684); test: Cytochrome P450 Family 3 Subfamily A Member 4 (CYP3A4) small molecule antagonists: luciferase reporter qHTS assay (AID 1671201); note: nearly all actives have a fitted effect of over 50% in size; note: potency is the fitted concentration of half-maximal effect
Method in brief: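 Recombinant human CYP3A4 converts a proluciferin substrate to luciferin over 1 h at room temperature after NADPH regeneration solution is added (compound preincubated 10 min); detection reagent stops reaction, luminescence read 20 min later as relative units.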

[17] = target: Estrogen receptor (Homo sapiens) (UniProt P03372); test: qHTS assay to identify small molecule agonists of the estrogen receptor alpha (ER-alpha) signaling pathway in the presence of an antagonist (AID 1259383; calls by dose curve; note: top concentration of the series differs between compounds; nearly all actives have a fitted effect of over 15% in size); conditions: VM7Luc4E2 cells, ERE-luciferase, +ICI-182,780, 22 h; at 92.4 µM (top of the series) unless noted
[18] = target: Progesterone receptor (Homo sapiens) (UniProt P06401); test: qHTS assay to identify small molecule antagonists of the progesterone receptor (PR) signaling pathway (AID 1346795; active = well fitted inhibition curve with a large enough effect in the signal ratio in the repeat runs, not every such curve was filed as active; the % refers to the signal ratio)
Method in brief: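 Antagonist mode with agonist R5020 at 1 nM final and 16 hr incubation at 37C. Reporter was beta-lactamase driven by UAS in HEK293T (PR-UAS-bla), 2% charcoal-stripped serum; signal from LiveBLAzer FRET substrate, 2 hr at room temperature.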

[19] = at 92.4 µM (top of the series) unless noted
[20] = at 76.8 µM (top of the series) unless noted
% is set by controls: 0 for no effect and ±100 for the full control effect.

Which results are given for `OCCSCCO`?
activity change, negative = cytotoxicity ([1]; at 42.5 µM (top of the series)): inactive: 5.37%; activity change, negative = cytotoxicity ([1]; at 92.4 µM (top of the series)): inactive: -14.1%; cAMP activity change ([2]; at 42.5 µM (top of the series)): inactive: -0.38%; cAMP activity change ([2]; at 92.4 µM (top of the series)): inactive: 1.32%; activity change, negative = inhibition ([3]; at 42.5 µM (top of the series)): inactive: -1.96%; activity change, negative = inhibition ([3]; at 92.4 µM (top of the series)): inactive: -1.3%; activity change, negative = cytotoxicity ([4]; at 42.5 µM (top of the series)): inactive: 3.84%; activity change, negative = cytotoxicity ([4]; at 92.4 µM (top of the series)): inactive: 0.923%; activity change, negative = cytotoxicity ([5]; at 42.5 µM (top of the series)): inactive: 7.63%; activity change, negative = cytotoxicity ([5]; at 92.4 µM (top of the series)): inactive: 3.61%; activity change, negative = cytotoxicity ([6]; at 35.3 µM (top of the series)): inactive: -2.27%; activity change, negative = cytotoxicity ([6]; at 76.8 µM (top of the series)): inactive: -3.9%; Potency [7]: inactive; activation ([8]; at 26.5 µM (top of the series)): inactive: -0.662%; activation ([8]; at 57.6 µM (top of the series)): inactive: 0.0189%; Potency [9]: inactive; caspase activation ([10]; at 42.5 µM (top of the series)): inactive: 1.37%; caspase activation ([10]; at 92.4 µM (top of the series)): inactive: -0.413%; Potency [11]: inactive; Potency [12]: inactive; activity change, negative = cytotoxicity ([13]; at 42.5 µM (top of the series)): inactive: 0.292%; activity change, negative = cytotoxicity ([13]; at 92.4 µM (top of the series)): inactive: -0.166%; Potency [14]: inactive; Potency [15]: inactive; Potency [16]: inactive

With `CC(C)OP(C)(=O)OC(C)C` as the compound, how does the activity change, negative = cytotoxicity [1, 19] read?
The activity change, negative = cytotoxicity was inactive: -12.4% and inactive: 1.47%.

And the activation [17]?
The activation was inactive: 6.15% and inactive: -1.65%.

What about the cAMP activity change [2, 19] of the same compound?
Its cAMP activity change is inactive: -0.121% and inactive: -2.48%.

What about the activity change, negative = inhibition ([3]; at 92.4 µM (top of the series)) of the same compound?
Its activity change, negative = inhibition is inactive: -1.77% and inactive: -0.147%.

And the activity change, negative = cytotoxicity ([4]; at 92.4 µM (top of the series))?
The activity change, negative = cytotoxicity was inactive: 2.18%.

What about the Potency [18] of the same compound?
Its Potency is “inactive”.

And the activity change, negative = cytotoxicity ([5]; at 92.4 µM (top of the series))?
Its activity change, negative = cytotoxicity is inactive: 15.1%.

What about the activity change, negative = cytotoxicity [6, 20] of the same compound?
The activity change, negative = cytotoxicity was inactive: 1.51% and inactive: 4.45%.

And the Potency [7]?
Its Potency is “inactive”.

What about the activation ([8]; at 57.6 µM (top of the series)) of the same compound?
The activation was inactive: -0.124% and inactive: -0.0184%.

What about the Potency [9] of the same compound?
The Potency was “inactive”.

What about the caspase activation [10, 19] of the same compound?
Its caspase activation is inactive: -0.512% and inactive: 0.22%.

And the Potency [12]?
Its Potency is “inactive”.

What about the activity change, negative = cytotoxicity ([13]; at 92.4 µM (top of the series)) of the same compound?
The activity change, negative = cytotoxicity was inactive: 1.73% and inactive: 1.45%.

What about the Potency [14] of the same compound?
Its Potency is active: 35.6 µM and inactive.

What about the Potency [15] of the same compound?
Its Potency is “inactive”.

What about the Potency [16] of the same compound?
The Potency was active: 28.3 µM and inactive.

Which results are given for `COP(C)(=O)OC`?
activity change, negative = cytotoxicity [1, 19]: inactive: 0.192% and inactive: 9.17%; activation [17]: inactive: 0.04% and inactive: -0.709%; cAMP activity change [2, 19]: inactive: 0.263% and inactive: 1.72%; activity change, negative = inhibition ([3]; at 92.4 µM (top of the series)): inactive: -1.11% and inactive: 0.869%; activity change, negative = cytotoxicity ([4]; at 92.4 µM (top of the series)): inactive: 1.09% and inactive: 0.369%; Potency [18]: inactive; activity change, negative = cytotoxicity ([5]; at 92.4 µM (top of the series)): inactive: 13.9% and inactive: 2.83%; activity change, negative = cytotoxicity [6, 20]: inactive: -11.2% and inactive: -0.335%; Potency [7]: inactive; activation ([8]; at 57.6 µM (top of the series)): inactive: 0.043% and inactive: -0.109%; Potency [9]: inactive; caspase activation [10, 19]: inactive: -2.04% and inactive: -0.949%; Potency [11]: inactive; Potency [12]: inactive; activity change, negative = cytotoxicity ([13]; at 92.4 µM (top of the series)): inactive: 2.39% and inactive: 3.04%; Potency [14]: inactive; Potency [15]: inactive; Potency [16]: inactive

What does the source list for `CCOP(=O)(CC)OCC`?
activity change, negative = cytotoxicity [1, 19]: inactive: 18.1%; cAMP activity change [2, 19]: inactive: -0.581%; activity change, negative = inhibition ([3]; at 92.4 µM (top of the series)): inactive: -0.738%; activity change, negative = cytotoxicity ([4]; at 92.4 µM (top of the series)): inactive: 4.64%; activity change, negative = cytotoxicity ([5]; at 92.4 µM (top of the series)): inactive: 14.1%; activity change, negative = cytotoxicity [6, 20]: inactive: 1.12%; Potency [7]: inactive; activation ([8]; at 57.6 µM (top of the series)): inactive: -0.0278%; Potency [9]: inactive; caspase activation [10, 19]: inactive: 0.295%; Potency [11]: inactive; Potency [12]: inactive; activity change, negative = cytotoxicity ([13]; at 92.4 µM (top of the series)): inactive: -2.63%; Potency [15]: inactive; Potency [16]: inactive
